Test results from US9040534B2 (Janssen Pharmaceutica NV, priority 2013, dated 2015).

Protein sequences, listed by entry. Tags and fused reporters are not part of them. Lines headed by an entry give the natural chain unless they say otherwise; changes in a name come on top.
UniProt Q64663: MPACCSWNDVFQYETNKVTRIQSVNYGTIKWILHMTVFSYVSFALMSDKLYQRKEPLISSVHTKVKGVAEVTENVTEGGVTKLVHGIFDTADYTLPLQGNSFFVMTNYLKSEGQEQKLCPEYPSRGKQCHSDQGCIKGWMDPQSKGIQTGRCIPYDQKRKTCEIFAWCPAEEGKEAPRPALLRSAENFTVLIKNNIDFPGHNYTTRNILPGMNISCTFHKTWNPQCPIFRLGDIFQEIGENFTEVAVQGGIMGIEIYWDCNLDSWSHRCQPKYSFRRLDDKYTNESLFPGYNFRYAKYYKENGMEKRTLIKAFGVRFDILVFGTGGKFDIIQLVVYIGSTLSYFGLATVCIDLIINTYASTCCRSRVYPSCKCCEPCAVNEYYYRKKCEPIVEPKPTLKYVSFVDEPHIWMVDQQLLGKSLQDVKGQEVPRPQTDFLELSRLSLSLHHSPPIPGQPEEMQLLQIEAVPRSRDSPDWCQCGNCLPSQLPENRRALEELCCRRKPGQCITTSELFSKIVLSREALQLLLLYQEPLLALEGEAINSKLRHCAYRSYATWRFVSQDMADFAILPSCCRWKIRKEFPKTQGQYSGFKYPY
UniProt Q99572: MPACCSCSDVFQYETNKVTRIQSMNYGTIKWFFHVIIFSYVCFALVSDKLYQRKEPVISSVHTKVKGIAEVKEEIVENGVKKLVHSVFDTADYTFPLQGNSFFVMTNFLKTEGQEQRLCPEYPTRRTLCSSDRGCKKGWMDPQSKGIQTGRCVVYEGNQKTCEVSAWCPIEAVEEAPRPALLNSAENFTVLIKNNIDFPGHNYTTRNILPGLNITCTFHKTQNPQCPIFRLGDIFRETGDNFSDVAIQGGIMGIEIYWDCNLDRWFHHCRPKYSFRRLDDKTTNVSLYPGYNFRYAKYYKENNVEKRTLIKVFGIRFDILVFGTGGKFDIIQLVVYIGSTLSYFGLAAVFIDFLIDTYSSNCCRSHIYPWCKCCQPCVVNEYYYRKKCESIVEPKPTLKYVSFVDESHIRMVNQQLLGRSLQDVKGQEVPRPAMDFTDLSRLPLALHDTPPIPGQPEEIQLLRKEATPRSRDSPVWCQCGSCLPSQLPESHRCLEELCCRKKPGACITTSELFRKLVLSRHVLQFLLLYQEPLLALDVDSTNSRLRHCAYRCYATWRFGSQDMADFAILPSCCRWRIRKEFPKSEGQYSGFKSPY

Assays:
rat P2X7 [1] = molecular target: T1, rat P2X7 (Rattus norvegicus (Rat), UniProt Q64663); test: Radioligand binding, rat P2X7-1321N1 cell membranes, tritiated A-804598 tracer; settings: 1 hour at 4° C.
Experimental: (§1) (B) Radioligand binding: human or rat P2X7-1321N1 cells were collected and frozen @ −80° C. On the day of the experiment, cell membrane preparations were made according to standard published methods. The total assay volume was 100 μl:10 μl compound (10×)+(b) 40 μl tracer (2.5×)+50 μl membrane (2×). The tracer used for the assay was tritiated A-804598. The compound can be prepared as described in the literature. (Donnelly-Roberts, D. Neuropharmacology 2009, 56 (1), 223-229.) Compounds, tracer and membranes were incubated for 1 hour @ 4° C. The assay was terminated by filtration (GF/B filters pre-soaked with 0.3% PEI) and washed with washing buffer (Tris-HCl 50 mM). The IC50 generated in the binding assay was corrected for tracer concentration and affinity of the tracer to derive at the affinity (Ki) of the test compounds.

rat P2X7 [2] = molecular target: T1, rat P2X7; test: Ca2+ flux (FLIPR) in 1321N1 cells expressing recombinant rat P2X7 channel; assay type: cell-based; settings: 250 μM BzATP
Experimental: (§2) (A) Ca^2+ Flux: 1321N1 cells expressing the recombinant human, rat or mouse P2X7 channel was cultured in HyQ DME/(HyClone/Dulbecco's Modified Eagle Medium) high glucose supplemented with 10% Fetal Bovine Serum (FBS) and appropriate selection marker. Cells were seeded at a density of 25000 cells/well (96-well clear bottom black walled plates) in 100 μl volume/well. On the day of the experiment, cell plates were washed with assay buffer, containing (in mM): 130 NaCl, 2 KCl, 1 CaCl2, 1 MgCl2, 10 HEPES, 5 glucose; pH 7.40 and 300 mOs. After the wash, cells were loaded with the Calcium-4 dye (Molecular Device) and incubated in the dark for 60 minutes. Test compounds were prepared at 250× the test concentration in neat DMSO. Intermediate 96-well compound plates were prepared by transferring 1.2 μL of the compound into 300 μL of assay buffer. A further 3× dilution occurred when transferring 50 μL/well of the compound plate to 100 μL/well in the cell plate. Cells were incubated with test compounds and dye for 30 minutes. […] The fluorescence change was measured 180 seconds after adding the agonist.

P2X7 [3] = molecular target: T2, P2X7 (Homo sapiens (Human), UniProt Q99572); test: Ca2+ flux (FLIPR) in 1321N1 cells expressing recombinant human P2X7 channel; assay type: cell-based; settings: 250 μM BzATP
Experimental: as §2

P2X7 [4] = molecular target: T2, P2X7; test: Radioligand binding, human P2X7-1321N1 cell membranes, tritiated A-804598 tracer; settings: 1 hour at 4° C.
Experimental: as §1, with “The total assay volume was 100 μl:10 μl compound (10×)+(b) 40 μl tracer (2.5×)+50 μl membrane (2×). The tracer used for the assay was tritiated A-804598.” left out, “(Donnelly-Roberts, D. Neuropharmacology 2009, 56 (1), 223-229.) Compounds, tracer and membranes were incubated for 1 hour @ 4° C.” left out

P2X7 [5] = molecular target: T2, P2X7; test: P2X7 antagonism in human whole blood (LPS + Bz-ATP induced IL-1β release, ELISA); assay type: cell-based; settings: 1 mM Bz-ATP
Experimental: Human blood was collected using a blood donor program. PBMCs were isolated from blood using a Ficoll density gradient technique. Briefly, blood was laid on Ficoll solution and centrifuged at RT for 20 minutes at 2000 rpm. The buffy layer (between red blood cells and plasma) was carefully collected by aspiration, washed with PBS and centrifuged again at 1500 rpm for 15 minutes. The resulting cell pellet was washed and plated on 96 well-plates for experiments. […] Lipopolysaccharide (LPS) (30 ng/ml) was added to each well and incubated for 1 hour. Test compounds were then added and incubated for 30 minutes. The P2X7 agonist, 2′(3′)-O-(4-benzoylbenzoyl) adenosine 5′-triphosphate (Bz-ATP) was then added at a final concentration of 0.5 mM (PBMC) or 1 mM (blood). Cells were incubated for an additional 1.5 hours. At that point, supernatant was collected and stored for IL-1β assay using manufacturer's protocol for enzyme-linked immunosorbent assay (ELISA). Data was expressed as percent control, where control is defined as the difference in IL-1β release in LPS+Bz-ATP samples and LPS only samples. Data was plotted as response (% control) versus concentration to generate IC50 values.

SMILES	Ki (rat P2X7 [1]) [nM]	IC50 (rat P2X7 [2]) [nM]	IC50 (P2X7 [3]) [nM]	Ki (P2X7 [4]) [nM]	IC50 (P2X7 [5]) [nM]
C[C@H]1Cn2c(nnc2-c2ccc(F)cc2)C(=O)N1Cc1cccc(C(F)(F)F)c1Cl [Example 17, (6S)-7-[2-Chloro-3-(trifluoromethyl)benzyl]-3-(4-fluorophenyl)-6-methyl-6,7-dihydro[1,2,4]triazolo[4,3-a]pyrazin-8(5H)-one]			< 1	7.9	
C[C@H]1Cn2c(nnc2-c2cnccn2)C(=O)N1Cc1ccccc1Cl [Example 80, (6S)-7-(2-Chlorobenzyl)-6-methyl-3-pyrazin-2-yl-6,7-dihydro[1,2,4]triazolo[4,3-a]pyrazin-8(5H)-one]				31.6	
CC1Cn2c(nnc2-c2cnccn2)C(=O)N1Cc1cccc(C(F)(F)F)c1Cl (racemic) [Example 14, (±)-7-[2-Chloro-3-(trifluoromethyl)benzyl]-6-methyl-3-pyrazin-2-yl-6,7-dihydro[1,2,4]triazolo[4,3-a]pyrazin-8(5H)-one]		49.5	2.1	4	
C[C@H]1Cn2c(nnc2-c2cnccn2)C(=O)N1Cc1cccc(C(F)(F)F)c1Cl [Example 16, (6S)-7-[2-Chloro-3-(trifluoromethyl)benzyl]-6-methyl-3-pyrazin-2-yl-6,7-dihydro[1,2,4]triazolo[4,3-a]pyrazin-8(5H)-one]	1.1	64.6	0.7	1.6	0.9
C[C@H]1Cn2c(nnc2-c2cncc(Cl)c2)C(=O)N1Cc1cccc(C(F)(F)F)c1Cl [Example 52, (6S)-3-(5-Chloropyridin-3-yl)-7-[2-chloro-3-(trifluoromethyl)benzyl]-6-methyl-6,7-dihydro[1,2,4]triazolo[4,3-a]pyrazin-8(5H)-one]			5.2	7.9	
C[C@H]1Cn2c(nnc2-c2cnccn2)C(=O)N1Cc1cccc(Cl)c1Cl [Example 13, (6S)-7-(2,3-Dichlorobenzyl)-6-methyl-3-pyrazin-2-yl-6,7-dihydro[1,2,4]triazolo[4,3-a]pyrazin-8(5H)-one]		103	1	1.4	
C[C@@H]1Cn2c(nnc2-c2cnccn2)C(=O)N1Cc1cccc(Cl)c1Cl [Example 12, (6R)-7-(2,3-Dichlorobenzyl)-6-methyl-3-pyrazin-2-yl-6,7-dihydro[1,2,4]triazolo[4,3-a]pyrazin-8(5H)-one]		> 1000	931	1580	
O=C1c2nnc(-c3cnccn3)n2CCN1Cc1cccc(Cl)c1Cl [Example 2, 7-(2,3-Dichlorobenzyl)-3-pyrazin-2-yl-6,7-dihydro[1,2,4]triazolo[4,3-a]pyrazin-8(5H)-one]		8670	438		
CC(c1ccccc1)N1C(=O)c2nnc(-c3cnccn3)n2C[C@@H]1C (stereo partly drawn) [Example 92, (6S)-6-Methyl-7-(1-phenylethyl)-3-pyrazin-2-yl-6,7-dihydro[1,2,4]triazolo[4,3-a]pyrazin-8(5H)-one]		10000		31.6	
CC[C@H]1Cn2c(nnc2-c2ncc(F)cn2)C(=O)N1Cc1cccc(C(F)(F)F)c1Cl [Example 75, (6S)-7-[2-Chloro-3-(trifluoromethyl)benzyl]-6-ethyl-3-(5-fluoropyrimidin-2-yl)-6,7-dihydro[1,2,4]triazolo[4,3-a]pyrazin-8(5H)-one]		126	< 1		
CC1Cn2c(nnc2-c2cnccn2)C(=O)N1Cc1cccc(Cl)c1Cl (racemic) [Example 11, (±)-7-(2,3-Dichlorobenzyl)-6-methyl-3-pyrazin-2-yl-6,7-dihydro[1,2,4]triazolo[4,3-a]pyrazin-8(5H)-one]		301	1.8	2.5	
C[C@@H]1Cn2c(nnc2-c2cnccn2)C(=O)N1Cc1cccc(C(F)(F)F)c1Cl [Example 15, (6R)-7-[2-Chloro-3-(trifluoromethyl)benzyl]-6-methyl-3-pyrazin-2-yl-6,7-dihydro[1,2,4]triazolo[4,3-a]pyrazin-8(5H)-one]		> 10000	9250	912	
C[C@H]1Cn2c(nnc2-c2ncccn2)C(=O)N1Cc1cccc(C(F)(F)F)c1Cl [Example 27, (6S)-7-[2-Chloro-3-(trifluoromethyl)benzyl]-6-methyl-3-pyrimidin-2-yl-6,7-dihydro[1,2,4]triazolo[4,3-a]pyrazin-8(5H)-one]			0.4	2	
C[C@H]1Cn2c(nnc2-c2cnccn2)C(=O)N1Cc1c(Cl)cccc1Cl [Example 86, (6S)-7-(2,6-Dichlorobenzyl)-6-methyl-3-pyrazin-2-yl-6,7-dihydro[1,2,4]triazolo[4,3-a]pyrazin-8(5H)-one]				63.1	
CC[C@H]1Cn2c(nnc2-c2ncccn2)C(=O)N1Cc1cccc(C(F)(F)F)c1Cl [Example 72, (6S)-7-[2-Chloro-3-(trifluoromethyl)benzyl]-6-ethyl-3-pyrimidin-2-yl-6,7-dihydro[1,2,4]triazolo[4,3-a]pyrazin-8(5H)-one]		5.6	0.9		
C[C@H]1Cn2c(nnc2-c2cnccn2)C(=O)N1Cc1ccc(Cl)cc1S(C)(=O)=O [Example 82, (6S)-7-[4-Chloro-2-(methylsulfonyl)benzyl]-6-methyl-3-pyrazin-2-yl-6,7-dihydro[1,2,4]triazolo[4,3-a]pyrazin-8(5H)-one]		> 10000	132		
CC(c1cccc(C(F)(F)F)c1Cl)N1C(=O)c2nnc(-c3cnccn3)n2C[C@@H]1C (stereo partly shown) [Example 93]	31.6	3050	88.1	158	

More lines, main results first:

Ki (rat P2X7 [1]) [nM]	SMILES	IC50 (rat P2X7 [2]) [nM]	IC50 (P2X7 [3]) [nM]	Ki (P2X7 [4]) [nM]	IC50 (P2X7 [5]) [nM]
2.8	C[C@H]1Cn2c(nnc2-c2ncc(F)cn2)C(=O)N1Cc1cccc(C(F)(F)F)c1Cl [Example 34, (6S)-7-[2-Chloro-3-(trifluoromethyl)benzyl]-3-(5-fluoropyrimidin-2-yl)-6-methyl-6,7-dihydro[1,2,4]triazolo[4,3-a]pyrazin-8(5H)-one]	175			
2	C[C@H]1Cn2c(nnc2-c2cc[nH]n2)C(=O)N1Cc1cccc(C(F)(F)F)c1Cl [Example 28, (6S)-7-[2-Chloro-3-(trifluoromethyl)benzyl]-6-methyl-3-(1H-pyrazol-3-yl)-6,7-dihydro[1,2,4]triazolo[4,3-a]pyrazin-8(5H)-one]	6.9	1		
5	C[C@H]1Cn2c(nnc2-c2ccc(F)cn2)C(=O)N1Cc1cccc(C(F)(F)F)c1Cl [Example 30, (6S)-7-[2-Chloro-3-(trifluoromethyl)benzyl]-3-(5-fluoropyridin-2-yl)-6-methyl-6,7-dihydro[1,2,4]triazolo[4,3-a]pyrazin-8(5H)-one]	188			
